Experimental data reported in patent publication US4485117A, “Antiprotozoal compounds” (priority 1981, dated 1984).

Test: in vivo
Details: rat, rats, oral, read-out: acute oral LD50
Experimental: The acute oral LD50 's of compounds of formula (I) in rats were determined by standard techniques.

`CCC(C)(C)C1CCC(C2=C(O)C(=O)c3ccccc3C2=O)CC1` (stereo not shown) [2-hydroxy-3-(4'-t-pentylcyclohexyl)-1,4-naphthoquinone] showed an LD50 of 2000 mg/kg.
